Laboratory results as given in publication PMC10960945, “A nanobody inhibitor of Fascin-1 actin-bundling activity and filopodia formation” (Open Biology, 2024).

Target: Fascin-1 1-493 (full-length human Fascin-1 WT, untagged) (human, UniProt Q16658)
Experiment: cell-based or functional assay

B1: Nb 3E11 (VHH)
VHH: QVQLQESGGGLVQAGGSLRLSCAASGRIFSSTRMGWFRQAPGKDREFIASIVWGTTTTYYVDSVKGRFTISRDNAKNMVFLQMNSLKPEDTAVYYCAAKIYYSGTYLAFNPDYWGQGTQVTVSS
percentage inhibition of Fascin-1 F-actin-bundling (co-sedimentation, densitometry of SDS-PAGE gels), titration of the Nb 3E11 : Fascin-1 molar ratio; the pair blocked is Fascin-1 with F-actin: 100%
